Measured values taken from patent publication US10781472B2, “Systems and methods for determining cyclic nucleotide concentration and related pathway activation” (PROMEGA CORPORATION, priority 2005, dated 2020).

Chains of the proteins cited; added tags and fusions are not shown.
UniProt P21728, whole entry: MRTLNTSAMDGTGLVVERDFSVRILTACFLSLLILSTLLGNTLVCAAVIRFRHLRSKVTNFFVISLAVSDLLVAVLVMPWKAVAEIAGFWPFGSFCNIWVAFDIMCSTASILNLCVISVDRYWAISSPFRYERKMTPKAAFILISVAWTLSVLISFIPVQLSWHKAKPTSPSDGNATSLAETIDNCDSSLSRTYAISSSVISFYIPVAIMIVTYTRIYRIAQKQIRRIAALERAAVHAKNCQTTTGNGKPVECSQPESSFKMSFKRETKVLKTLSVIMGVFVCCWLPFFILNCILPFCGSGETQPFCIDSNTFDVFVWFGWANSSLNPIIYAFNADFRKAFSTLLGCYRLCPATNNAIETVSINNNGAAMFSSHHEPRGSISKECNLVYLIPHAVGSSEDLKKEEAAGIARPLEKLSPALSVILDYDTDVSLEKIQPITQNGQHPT

Target: dopamine receptor D1 (DRD1) (Homo sapiens, UniProt P21728)
Settings: 1 μg DRD1 plasma membranes, 15 min induction (FIG. 10)

CCCN1CCC[C@@H]2Cc3n[nH]cc3C[C@H]21 [quinpirole]
luminescent signal as agonist concentration increases (DRD1 activation): not
